Laboratory results reported in BindingDB's records for doi:10.7270/Q2VT1QHF (Vanderbilt Screening Center For Gpcrs, Ion Channels and …, 2010).

Protein sequences, listed by entry. Tags and fused reporters are not part of them. Lines headed by an entry give the natural chain unless they say otherwise; changes in a name come on top.
UniProt Q14833: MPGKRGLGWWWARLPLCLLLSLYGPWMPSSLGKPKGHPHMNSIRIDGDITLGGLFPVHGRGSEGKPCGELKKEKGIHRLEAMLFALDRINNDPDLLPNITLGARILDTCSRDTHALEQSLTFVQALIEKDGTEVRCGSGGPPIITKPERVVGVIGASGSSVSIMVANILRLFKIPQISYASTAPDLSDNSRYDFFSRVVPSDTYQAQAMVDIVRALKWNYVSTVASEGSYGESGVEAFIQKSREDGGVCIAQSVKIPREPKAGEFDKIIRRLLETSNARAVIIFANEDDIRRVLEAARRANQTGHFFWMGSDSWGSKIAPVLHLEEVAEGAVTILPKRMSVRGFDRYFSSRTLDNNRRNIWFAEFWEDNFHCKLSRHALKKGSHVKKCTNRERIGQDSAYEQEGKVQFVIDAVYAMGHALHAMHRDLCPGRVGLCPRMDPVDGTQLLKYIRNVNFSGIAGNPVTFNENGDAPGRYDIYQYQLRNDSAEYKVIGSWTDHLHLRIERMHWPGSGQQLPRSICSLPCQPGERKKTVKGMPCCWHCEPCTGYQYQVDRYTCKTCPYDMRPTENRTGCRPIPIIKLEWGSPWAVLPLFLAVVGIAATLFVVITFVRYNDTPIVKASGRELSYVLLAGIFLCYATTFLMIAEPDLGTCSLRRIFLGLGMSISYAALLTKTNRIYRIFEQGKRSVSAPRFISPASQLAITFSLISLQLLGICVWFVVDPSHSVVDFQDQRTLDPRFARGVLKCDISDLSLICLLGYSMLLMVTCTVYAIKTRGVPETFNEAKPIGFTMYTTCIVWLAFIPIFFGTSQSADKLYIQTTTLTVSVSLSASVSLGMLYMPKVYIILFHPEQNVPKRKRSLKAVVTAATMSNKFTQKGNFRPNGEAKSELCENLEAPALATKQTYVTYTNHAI

Molecular target: Metabotropic glutamate receptor 4 (Homo sapiens, UniProt Q14833)
Test: PubChem AID 2197

| EC50 [nM] | Compound |
| --- | --- |
| 265 | O=C(Nc1ccc(-n2c(O)c3c(c2O)CCCC3)c(Cl)c1)c1ccccn1 [VU0366515-1] |
| 823 | O=C(Nc1ccc(-n2c(O)cc(-c3ccccc3)c2O)c(Cl)c1)c1ccccn1 [N-[3-chloro-4-(2,5-dioxo-3-phenyl-1-pyrrolidinyl)phenyl]-2-pyridinecarboxamide] |
| 473 | CC1(C)c2c1c(O)n(-c1ccc(NC(=O)c3ccccn3)cc1Cl)c2O [N-[3-chloranyl-4-[(1S,5R)-6,6-dimethyl-2,4-bis(oxidanylidene)-3-azabicyclo[3.1.0]hexan-3-yl]phenyl]pyridine-2-carboxamide] |
